Among the data in ChEMBL document CHEMBL3272207, “Structure-activity relationship in cinnamamides. 2. Synthesis and pharmacological evaluation of some (E)- and (Z)-N-alkyl-alpha, beta-dimethylcinnamamides substituted on the phenyl group” (J Med Chem, 1977) are LD50 values, retold here.

The nature of this data set: Toxicity in po dosed albino Icem-CET (SPF Caw) mouse assessed as mortality measured after 24 to 72 hrs. The format is organism-based. The settings on record: in vivo.

The LD50 is the dose at which mortality reaches 50%. `O=C1NC(=O)C(c2ccccc2)(c2ccccc2)N1` [PHENYTOIN]: the LD50 was 200 mg/kg.
